# OPERA 2.9 data: logP (octanol/water) values

Values as listed in the OPERA 2.9 repository of K. Mansouri.

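OPERA's authors assembled the values from existing databases and did not measure them anew. The files give a single number for a compound and property, which may rest on several reports. Conditions of the individual experiments are not part of the data. Where a salt, mixture or single isomer is drawn, the source does not say that exactly this form was tested. Unmarked limits or estimates from the upstream databases cannot be ruled out.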

logP is the log10 of the octanol-water partition coefficient; higher is more lipophilic.

{"smiles": "Clc1cc(-c2cc(Cl)c(Cl)c(Cl)c2Cl)cc(Cl)c1Cl", "name": "2,3,3',4,4',5,5'-Heptachlorobiphenyl", "log Kow": "7.71"}
{"smiles": "CCOC(=O)C1(c2ccccc2)CCN(CCC(C#N)(c2ccccc2)c2ccccc2)CC1", "name": "Diphenoxylate", "log Kow": "6.3"}
{"smiles": "CN(N=O)C(C)(C)C", "name": "N-tert-Butyl-N-methylnitrous amide", "log Kow": "0.81"}
{"smiles": "OC(Cc1ccccc1Cl)(Cn1nc[nH]c1=S)C1(Cl)CC1", "stereo": "stereo unspecified", "name": "Prothioconazole", "log Kow": "4.05"}
{"smiles": "C#C[C@]1(O)CC[C@H]2[C@H]3[C@H](CC[C@@]21C)[C@H]1CCC(=O)C=C1C[C@H]3C", "name": "delta4-Tibolone", "log Kow": "3.15"}
{"smiles": "CC(C)CC(C)OP(=S)([S-])OC(C)CC(C)C.CC(C)CC(C)OP(=S)([S-])OC(C)CC(C)C.[Zn+2]", "stereo": "stereo unspecified", "log Kow": "2.21"}
{"smiles": "CC(Cl)C(=O)O", "stereo": "stereo unspecified", "name": "2-Chloropropanoic acid", "log Kow": "0.775"}
{"smiles": "Oc1ccc(C(c2ccc(O)cc2)(C(F)(F)F)C(F)(F)F)cc1", "name": "Bisphenol AF", "log Kow": "2.79"}
{"smiles": "C[C@]12CC[C@H]3[C@@H](CCC4=CC(=O)CC[C@@]43C=O)[C@@H]1CC[C@@H]2O", "name": "19-Aldotestosterone", "log Kow": "3.32"}
{"smiles": "CCCCCCCCCCCCCCCC[n+]1ccccc1.[Br-]", "name": "Cetylpyridinium bromide", "log Kow": "1.83"}
{"smiles": "C[C@]12CCC3=C4CCC(=O)C=C4CC[C@H]3[C@@H]1CC[C@@H]2O", "name": "9,10-Dehydro-19-nortestosterone", "log Kow": "2.4"}
{"smiles": "COC1=C[C@]23CCCN2CCc2cc4c(cc2[C@@H]3C1=O)OCO4", "name": "Cephalotaxine", "log Kow": "0.84"}
{"smiles": "Cl.N=C(N)NN", "name": "Aminoguanidine hydrochloride", "log Kow": "-3.55"}
{"smiles": "Cl/C=C/C[N+]12CN3CN(CN(C3)C1)C2.[Cl-]", "name": "N-(3-Chloroallyl)hexaminium chloride", "log Kow": "-0.1"}
{"smiles": "[C-]#[O+].[C-]#[O+].[C-]#[O+].[C-]#[O+].[C-]#[O+].[Fe]", "name": "Pentacarbonyl iron", "log Kow": "3"}
{"smiles": "CCCC[N+](CCCC)(CCCC)CCCC.[Br-]", "name": "Tetrabutylammonium bromide", "log Kow": "0.839"}
{"smiles": "CCOC(=O)CP(=O)(OCC)OCC", "name": "Triethyl phosphonoacetate", "log Kow": "1.13"}
{"smiles": "CN(C)C(=S)[S-].CN(C)C(=S)[S-].CN(C)C(=S)[S-].[Fe+3]", "name": "Ferbam", "log Kow": "-1.6"}
{"smiles": "C[C@]12CC[C@H]3[C@@H](CCC4=CC(=O)CC[C@@H]43)[C@@H]1CCC2=O", "name": "19-Norandrostenedione", "log Kow": "2.18"}
{"smiles": "Br.CCCNC1CCc2c(O)cccc2C1", "stereo": "stereo unspecified", "log Kow": "-0.16"}
{"smiles": "Cc1cccc(C[N+](C)(C)C)c1.[Br-]", "name": "N,N,N-Trimethyl(3-methylphenyl)methanaminium bromide", "log Kow": "-1.99"}
{"smiles": "CC(C)(c1ccc(OCC2CO2)cc1)c1ccc(OCC2CO2)cc1", "stereo": "stereo unspecified", "name": "Bisphenol A diglycidyl ether", "log Kow": "3.209"}
{"smiles": "C=CC(=O)OC(C)(C)C", "name": "tert-Butyl acrylate", "log Kow": "2.31"}
{"smiles": "NP(N)(=O)Nc1ccccc1[N+](=O)[O-]", "name": "(2-Nitrophenyl)-phosphoric triamide", "log Kow": "0.51"}
{"smiles": "CCCCCCCCCCCCCCCC[N+](C)(C)CCO.O=P([O-])(O)O", "log Kow": "6.708"}
{"smiles": "Nc1cc(Cl)cc(C(=O)O)c1Cl", "name": "Chloramben", "log Kow": "1.11"}
{"smiles": "Cc1ccccc1OP(=O)(Oc1ccccc1C)Oc1ccccc1C", "name": "Tri-o-cresyl phosphate", "log Kow": "6.3"}
{"smiles": "CC(C)C(Nc1ccc(C(F)(F)F)cc1Cl)C(=O)OC(C#N)c1cccc(Oc2ccccc2)c1", "stereo": "stereo unspecified", "name": "Fluvalinate", "log Kow": "5.5"}
{"smiles": "Cc1cccc(N)c1C", "name": "2,3-Xylidine", "log Kow": "2.005"}
{"smiles": "Nc1ccc([N+](=O)[O-])cc1[N+](=O)[O-]", "name": "2,4-Dinitroaniline", "log Kow": "1.89"}
{"smiles": "CC(C)(C)CC(C)(C)c1ccc(O)cc1", "name": "4-(1,1,3,3-Tetramethylbutyl)phenol", "log Kow": "4.46"}
{"smiles": "O=[N+]([O-])C(Br)(CO)CO", "name": "Bronopol", "log Kow": "0.21"}
{"smiles": "C#C[C@@]1(O)CC[C@@H]2[C@H]3CC=C4C=C(OCC)CC[C@H]4[C@@H]3CC[C@]21C", "log Kow": "5.8"}
{"smiles": "CC(C)(c1ccccc1)c1ccc(O)cc1", "name": "4-Cumylphenol", "log Kow": "3.7"}
{"smiles": "CCC12COCN1COC2", "name": "7a-Ethyldihydro-1H,3H,5H-oxazolo(3,4-c)oxazole", "log Kow": "-0.705"}
{"smiles": "NCCc1ccc(S(N)(=O)=O)cc1", "name": "4-(2-Aminoethyl)benzenesulfonamide", "log Kow": "-2.75"}
{"smiles": "CC(O)(CSc1ccc(F)cc1)C(=O)Nc1ccc(C#N)c(C(F)(F)F)c1", "stereo": "stereo unspecified", "name": "Bicalutamide sulfide", "log Kow": "3.8"}
{"smiles": "CCCCC(CC)CO[N+](=O)[O-]", "stereo": "stereo unspecified", "name": "2-Ethylhexyl nitrate", "log Kow": "5.24"}
{"smiles": "CC(C)CP(=S)([S-])CC(C)C.[Na+]", "name": "Sodium diisobutyldithiophosphinate", "log Kow": "-1.64"}

The first 5 entries again:

compound	name	log Kow
Clc1cc(-c2cc(Cl)c(Cl)c(Cl)c2Cl)cc(Cl)c1Cl	2,3,3',4,4',5,5'-Heptachlorobiphenyl	7.71
CCOC(=O)C1(c2ccccc2)CCN(CCC(C#N)(c2ccccc2)c2ccccc2)CC1	Diphenoxylate	6.3
CN(N=O)C(C)(C)C	N-tert-Butyl-N-methylnitrous amide	0.81
OC(Cc1ccccc1Cl)(Cn1nc[nH]c1=S)C1(Cl)CC1 (stereo unspecified)	Prothioconazole	4.05
C#C[C@]1(O)CC[C@H]2[C@H]3[C@H](CC[C@@]21C)[C@H]1CCC(=O)C=C1C[C@H]3C	delta4-Tibolone	3.15